This assay has as its target human Nav1.7 (Homo sapiens (Human), UniProt Q15858). Put plainly: Nav 1.7 In Vitro PX Assay (PatchXpress whole cell voltage clamp). In kind it is cell-based. The note with it: in-vitro Nav 1.7 PX data.

Sequences of proteins named here, by UniProt entry; tags and fusion partners are left off.
UniProt Q15858, whole entry: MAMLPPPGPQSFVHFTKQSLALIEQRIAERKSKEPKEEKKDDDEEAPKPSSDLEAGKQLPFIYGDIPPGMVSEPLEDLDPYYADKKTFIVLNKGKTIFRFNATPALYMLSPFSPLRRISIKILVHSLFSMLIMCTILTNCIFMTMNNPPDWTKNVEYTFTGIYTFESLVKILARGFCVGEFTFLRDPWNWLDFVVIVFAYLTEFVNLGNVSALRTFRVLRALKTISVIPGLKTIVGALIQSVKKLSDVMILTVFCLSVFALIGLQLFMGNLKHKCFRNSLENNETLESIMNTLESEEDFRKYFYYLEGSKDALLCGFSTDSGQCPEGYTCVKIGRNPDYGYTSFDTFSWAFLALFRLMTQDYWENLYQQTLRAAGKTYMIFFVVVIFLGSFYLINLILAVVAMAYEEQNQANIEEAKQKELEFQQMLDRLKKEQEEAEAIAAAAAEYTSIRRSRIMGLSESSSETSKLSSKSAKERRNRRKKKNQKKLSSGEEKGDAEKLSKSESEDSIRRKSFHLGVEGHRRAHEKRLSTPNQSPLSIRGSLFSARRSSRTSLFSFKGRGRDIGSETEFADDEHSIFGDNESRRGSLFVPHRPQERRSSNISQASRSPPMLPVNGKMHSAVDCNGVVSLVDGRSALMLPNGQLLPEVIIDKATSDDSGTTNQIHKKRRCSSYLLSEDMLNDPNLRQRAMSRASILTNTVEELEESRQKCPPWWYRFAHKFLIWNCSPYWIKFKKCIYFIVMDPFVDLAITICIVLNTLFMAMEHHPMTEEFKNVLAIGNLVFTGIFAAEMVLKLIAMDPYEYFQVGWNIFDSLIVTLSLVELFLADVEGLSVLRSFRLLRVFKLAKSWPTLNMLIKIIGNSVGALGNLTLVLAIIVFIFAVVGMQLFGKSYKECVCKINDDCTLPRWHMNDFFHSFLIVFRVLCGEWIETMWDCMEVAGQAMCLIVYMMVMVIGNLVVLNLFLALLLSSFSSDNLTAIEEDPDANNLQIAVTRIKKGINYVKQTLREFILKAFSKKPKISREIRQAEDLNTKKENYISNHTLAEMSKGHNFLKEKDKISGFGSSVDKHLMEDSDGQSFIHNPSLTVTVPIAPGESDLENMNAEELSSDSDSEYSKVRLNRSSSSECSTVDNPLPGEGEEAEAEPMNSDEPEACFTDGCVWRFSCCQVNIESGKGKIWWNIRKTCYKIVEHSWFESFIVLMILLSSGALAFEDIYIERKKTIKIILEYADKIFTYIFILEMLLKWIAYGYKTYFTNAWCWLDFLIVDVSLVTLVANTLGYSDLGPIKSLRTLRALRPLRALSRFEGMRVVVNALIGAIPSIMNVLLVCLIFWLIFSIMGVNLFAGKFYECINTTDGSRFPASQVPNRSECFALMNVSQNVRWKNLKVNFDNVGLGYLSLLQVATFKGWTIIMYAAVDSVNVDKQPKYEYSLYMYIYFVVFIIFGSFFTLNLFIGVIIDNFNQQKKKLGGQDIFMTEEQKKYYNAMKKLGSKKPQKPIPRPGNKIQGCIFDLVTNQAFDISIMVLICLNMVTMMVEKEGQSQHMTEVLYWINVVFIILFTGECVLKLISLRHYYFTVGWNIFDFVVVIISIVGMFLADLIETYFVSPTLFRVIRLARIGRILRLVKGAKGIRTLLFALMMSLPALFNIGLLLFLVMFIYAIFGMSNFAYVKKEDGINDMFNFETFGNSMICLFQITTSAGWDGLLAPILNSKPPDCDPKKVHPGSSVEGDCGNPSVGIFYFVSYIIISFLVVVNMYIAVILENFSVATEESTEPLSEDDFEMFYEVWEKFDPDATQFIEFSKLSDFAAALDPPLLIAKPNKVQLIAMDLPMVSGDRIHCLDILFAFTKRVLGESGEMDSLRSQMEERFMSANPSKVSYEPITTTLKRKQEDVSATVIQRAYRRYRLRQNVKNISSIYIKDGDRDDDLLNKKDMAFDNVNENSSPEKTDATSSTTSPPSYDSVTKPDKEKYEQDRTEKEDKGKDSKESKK

A word on the IC50: it is the concentration that inhibits the measured activity by half. A higher IC50 goes with weaker potency in that assay. Turning to `CNC(=O)N(c1ccc(S(=O)(=O)Nc2ncccn2)cn1)c1cc(F)c(-c2ccc(F)c(OC(F)(F)F)c2)cc1OC` [Example 1-87, 6-((2,4′-difluoro-5-methoxy-3′-(trifluoromethoxy)-4-biphenylyl)(methylcarbamoyl)amino)-N-2-pyrimidinyl-3-pyridinesulfonamide], the IC50 turned out to be 14 nM.

(Values after US10668067B2, “Pyridine sulfonamides” (AMGEN INC., priority 2016, dated 2020).)
